Calls of active or inactive are those of the source. No cut-off for these calls is given here.

Assay [1] deals with Mus musculus. The assay is described as follows: Protection against imiquimod-induced psoriasis in BALB/c mouse model assessed as reduction of skin scaling at 25 mg/kg, po dosed twice daily relative to control. The class given is functional, organism-based.
Assay [2] deals with Mus musculus. The assay is described as follows: Protection against imiquimod-induced psoriasis in BALB/c mouse model assessed as reduction in back skin erythema at 25 mg/kg, po dosed twice daily relative to control. The class given is functional, organism-based.
Assay [3] deals with T1, Nuclear receptor ROR-gamma (Mus musculus) (UniProt P51450).
T1 sequence (whole entry): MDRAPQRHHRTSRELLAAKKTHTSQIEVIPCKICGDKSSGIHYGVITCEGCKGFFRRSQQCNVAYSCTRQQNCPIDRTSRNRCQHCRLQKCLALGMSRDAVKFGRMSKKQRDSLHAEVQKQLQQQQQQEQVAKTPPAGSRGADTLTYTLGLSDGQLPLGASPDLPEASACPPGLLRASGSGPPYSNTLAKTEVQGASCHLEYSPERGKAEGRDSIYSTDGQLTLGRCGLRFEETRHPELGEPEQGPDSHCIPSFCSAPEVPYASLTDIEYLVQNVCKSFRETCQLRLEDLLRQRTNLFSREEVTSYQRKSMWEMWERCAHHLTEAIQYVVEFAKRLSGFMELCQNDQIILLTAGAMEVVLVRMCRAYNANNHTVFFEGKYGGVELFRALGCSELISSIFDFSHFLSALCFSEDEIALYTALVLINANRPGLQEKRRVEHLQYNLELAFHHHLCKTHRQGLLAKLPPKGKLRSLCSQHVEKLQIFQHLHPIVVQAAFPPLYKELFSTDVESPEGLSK
The assay is described as follows: Inverse agonist activity at RORgammat in mouse CD4+ T cells assessed as inhibition of differentiation into Th17 cells by measuring IL-17 production at 0.3 uM by flow cytometry relative to control. The assay is classed as cell-based. As to conditions: CD4+ve Th, filed as inverse agonist.

Assay [4] deals with Mus musculus. The assay is described as follows: Protection against imiquimod-induced psoriasis in BALB/c mouse model assessed as reduction in ear erythema at 25 mg/kg, po dosed twice daily relative to control. The assay is classed as functional, organism-based.

By inhibition is commonly meant how much of the control response was suppressed. As for `O=C(O)Cc1ccc(CNC(=O)Nc2cc(Cl)c(-c3ccccc3OC(F)(F)F)c(Cl)c2)cc1`, the result in assay [1], in assay [2] and in assay [4] was Active. The inhibition in assay [3] was 76%.
Consider `CCS(=O)(=O)c1ccc(CC(=O)Nc2cc(Cl)c(-c3ccccc3OC(F)(F)F)c(Cl)c2)cc1`, for which the inhibition in assay [3] was 84%.

These data come from ChEMBL document CHEMBL4765390, “Discovery of carboxyl-containing biaryl ureas as potent RORγt inverse agonists” (Eur J Med Chem, 2020).
